Source: patent US20230233514A1, “ANTIVIRAL COMPOUNDS AND METHODS OF USING THE SAME” (priority 2020, published 2023)

Experiments:
Vero E6 cells [1] = conditions: 48 hours, CellTiterGlo
Vero E6 cells [2] = tested on: Vero E6 cells

Substance: Miquelianin/Quercetin 3-glucuronide
- concentrations that did not significantly impact Vero E6 cell viability compared to the DMSO treated control (Vero E6 cells [1]): less than or equal to 100 μM
- toxicity observed at (and above) concentration (Vero E6 cells [1]): 1000 µM
- effect on Host Cell Number (cell viability) (Vero E6 cells [2]): did not show an effect
